Test results as given in patent US8222270B2 (Medicis Pharmaceutical Corporation, priority 2008, dated 2012).

Description: A combined fertility and peri- and post-natal development study was conducted in rats.

CC(C)Cn1cnc2c(N)nc3ccccc3c21 [imiquimod, 1-(2-methylpropyl)-1H-imidazo[4,5-c]quinolin-4-amine]
Exposure multiple at dose without effects on growth, fertility or reproduction (6 mg/kg/day): 57 ×MRHD based on AUC comparisons
Dose up to which no effects on growth, fertility, reproduction or post-natal development were noted (oral, highest dose evaluated): 6 mg/kg/day
